This note sets out measurements from US6936584B1, “Mixed amylin activity compounds” (Amylin Pharmaceuticals, Inc., priority 1998, dated 2005).

By UniProt entry, the sequences of proteins in these tests, tags left out. Residues count along the entry.
UniProt O60894, 27-148 partner: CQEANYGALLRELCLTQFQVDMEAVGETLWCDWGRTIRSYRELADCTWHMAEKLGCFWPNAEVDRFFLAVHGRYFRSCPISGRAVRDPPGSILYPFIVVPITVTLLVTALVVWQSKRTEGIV
UniProt Q16602, 23-461: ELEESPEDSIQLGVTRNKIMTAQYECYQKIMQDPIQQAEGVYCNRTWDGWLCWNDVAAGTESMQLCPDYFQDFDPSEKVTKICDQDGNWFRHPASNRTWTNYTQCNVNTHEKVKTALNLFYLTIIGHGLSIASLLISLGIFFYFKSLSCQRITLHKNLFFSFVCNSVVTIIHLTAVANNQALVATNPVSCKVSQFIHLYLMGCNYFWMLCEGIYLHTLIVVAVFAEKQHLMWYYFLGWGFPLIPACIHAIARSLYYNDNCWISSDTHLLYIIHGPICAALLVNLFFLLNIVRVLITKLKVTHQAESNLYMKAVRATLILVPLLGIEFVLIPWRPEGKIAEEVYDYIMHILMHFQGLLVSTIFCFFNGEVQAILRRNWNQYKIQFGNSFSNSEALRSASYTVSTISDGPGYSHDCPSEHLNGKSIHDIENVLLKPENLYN

Assay [1] deals with T1, calcitonin receptors (Homo sapiens, UniProt P30988).
T1 sequence (P30988 25-474): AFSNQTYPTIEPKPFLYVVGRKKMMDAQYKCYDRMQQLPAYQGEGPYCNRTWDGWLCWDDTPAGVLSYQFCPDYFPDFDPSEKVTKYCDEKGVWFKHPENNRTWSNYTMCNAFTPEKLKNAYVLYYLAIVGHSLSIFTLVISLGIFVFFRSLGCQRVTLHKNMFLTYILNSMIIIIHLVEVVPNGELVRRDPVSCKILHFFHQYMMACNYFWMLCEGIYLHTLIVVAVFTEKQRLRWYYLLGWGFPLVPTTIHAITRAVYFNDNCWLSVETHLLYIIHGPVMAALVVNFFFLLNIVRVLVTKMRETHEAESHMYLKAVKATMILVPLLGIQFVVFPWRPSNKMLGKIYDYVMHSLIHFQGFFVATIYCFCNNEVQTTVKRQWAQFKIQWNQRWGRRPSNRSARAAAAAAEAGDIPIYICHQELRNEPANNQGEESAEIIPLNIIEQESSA
As to the kind of experiment: Binding to membranes from T47D cells (calcitonin receptors), displacement of [125I]salmon calcitonin. Details: Membranes were prepared from confluent cultures of T47D cells; host or cells: T47D human breast carcinoma cells. The conditions noted are these: mean ± SEM (n), read-out: Receptor IC50 in nM [mean ± SEM (n)] Calcitonin. Background: In a radioligand displacement assay an active substance lowers the binding of a labelled ligand.

The target of assay [2] is T1, calcitonin receptors. Briefly: Adenyl cyclase stimulation, cyclic AMP accumulation in MCF7-7 cells. Format: cell-based. As to conditions: read-out: EC50 cyclic AMP accumulation / adenylyl cyclase activity.
The target of a further assay is T2, CGRP receptors (Homo sapiens, UniProt O60894+Q16602).
T2 construct: SK-N-MC cells (ATCC No. HTB-10) were homogenized in 50 mM Hepes buffer; host or cells: SK-N-MC human neuroblastoma cells
As to the kind of experiment: Binding to membranes from SK-N-MC cells (CGRP receptors), displacement of [125I]human-CGRP. As to conditions: mean ± SEM (n), read-out: Receptor IC50 in nM [mean ± SEM (n)] CGRP.

The target of a further assay is T3, amylin receptors (Rattus norvegicus, UniProt P32214).
T3 sequence (P32214 25-516): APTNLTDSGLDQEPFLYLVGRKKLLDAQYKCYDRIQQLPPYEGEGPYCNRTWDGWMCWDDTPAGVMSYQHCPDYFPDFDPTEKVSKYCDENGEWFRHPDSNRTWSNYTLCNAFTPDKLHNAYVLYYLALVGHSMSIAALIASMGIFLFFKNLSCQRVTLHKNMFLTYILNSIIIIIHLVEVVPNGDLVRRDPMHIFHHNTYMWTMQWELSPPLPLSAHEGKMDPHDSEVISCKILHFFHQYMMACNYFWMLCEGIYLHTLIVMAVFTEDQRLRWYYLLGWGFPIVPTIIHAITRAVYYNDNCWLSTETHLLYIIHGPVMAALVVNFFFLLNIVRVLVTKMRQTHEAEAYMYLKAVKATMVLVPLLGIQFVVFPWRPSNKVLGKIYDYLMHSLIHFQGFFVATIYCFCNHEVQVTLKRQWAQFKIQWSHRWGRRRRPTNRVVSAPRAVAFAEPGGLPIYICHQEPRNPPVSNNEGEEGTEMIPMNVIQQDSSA
As to the kind of experiment: Binding to rat nucleus accumbens membranes (amylin receptors), displacement of 125I-BH-rat amylin. The conditions noted are these: read-out: Receptor IC50 in nM [mean ± SEM (n)] Amylin.

In assay [3] the target is T1, calcitonin receptors. As to the kind of experiment: Adenyl cyclase stimulation, cyclic AMP accumulation in T47D cells. It is filed as cell-based.

Bounds are passed on as bounds.

With “4-methylpentanoyl-Ser-Thr-Ala-Val-Leu-Aib-Lys(For)-Leu-Ser-Gln-Glu-Leu-Aib-Lys(For)-Leu-Gln-Thr-Tyr-Pro-Arg-Thr-Asn-Thr-Gly-Ser-Gly-Thr-Pro [Compound 2]”, the half-maximal inhibitory concentration (IC50) (usually the point on the concentration scale where inhibition reaches its midpoint) on calcitonin receptors [1] is 0.37 nM; at CGRP receptors, more than 10000 nM. At calcitonin receptors [2], the EC50 turned out to be 1.6 nM.
As to “Ac-Val-Leu-Aib-Lys(For)-Leu-Ser-Gln-Glu-Leu-Aib-Lys(For)-Leu-Gln-Thr-Tyr-Pro-Arg-Thr-Asn-Thr-Gly-Ser-Asn-Thr-Tyr [Compound 9]”, the IC50 at amylin receptors is 7.6 nM; on calcitonin receptors [1] it was 24 nM; at CGRP receptors, more than 10000 nM.
As for “Ac-Leu-Ser-Thr-Cys-Val-Leu-Gly-Arg-Leu-Ser-Gln-Glu-Leu-His-Arg-Leu-Gln-Thr-Tyr-Pro-Arg-Thr-Asn-Thr-Gly-Ser-Asn-Thr-Tyr [Compound 7]”, the IC50 at CGRP receptors is 1400 nM.
In the case of “Leu-Ser-Thr-Ser-Val-Leu-Gly-Arg-Leu-Ser-Gln-Glu-Leu-His-Arg-Leu-Gln-Thr-Tyr-Pro-Arg-Thr-Asn-Thr-Gly-Ser-Asn-Thr-Tyr [Compound 5]”, the IC50 turned out to be 0.092 ± 0.011 nM on amylin receptors, 0.15 nM on calcitonin receptors [1] and 44 ± 12 nM on CGRP receptors.
Regarding “Leu-Ser-Thr-Ala-Val-Leu-Gly-Arg-Leu-Ser-Gln-Glu-Leu-His-Arg-Leu-Gln-Thr-Tyr-Pro-Arg-Thr-Asn-Thr-Gly-Ser-Asn-Thr-Tyr [Compound 4]”, the IC50 worked out at 0.066 ± 0.008 nM at amylin receptors, 0.13 nM on calcitonin receptors [1] and 92 ± 13 nM at CGRP receptors. At calcitonin receptors [2], the EC50 worked out at 3.5 nM.
As for human calcitonin [reference compound], the EC50 at calcitonin receptors [2] came out at 0.45 nM; on calcitonin receptors [3] it was 3.1 nM.
